Measured values from US20230265167A1, “COMPOSITIONS HAVING NEUROREGENERATIVE APPLICATIONS” (GRIFOLS WORLDWIDE OPERATIONS LIMITED, priority 2020, published 2023).

Tested on: SH-SY5Y cells
Experiment: Neurite outgrowth (differentiation) in SH-SY5Y cells, Tubulin Tracker imaging
Format: cell-based, human
Settings: proteins at 0.2 mg/mL
Method: Transferrin is utilized in cell culture and in-vivo to deliver iron as a nutrient to cells. This is typically accomplished through the actions of holo-transferrin (HoloTf) binding to, and endocytosis by, its cognate receptor CD71, the transferrin receptor 1 (TfR1). Transferrin is typically believed to provide cells with iron as a means to promote and sustain metabolic activity. […] Induction of neuronal differentiation was assessed by morphological parameters of neurite formation (a key element typically used as a marker of neuronal differentiation, neuronal health, and function) according to the procedures of Agholme, 2010. J. of Alzheimer's Disease. Vol. 20:1p 069-108; and Dyberg et al., 2017. PNAS Vol 114 (32), E6603-E6612.
Undifferentiated SH-SY5Y cells were seeded into 96 well clear bottom plates in media containing 0.1% FBS. […]
Cells were allowed to differentiate for 6 days. Neurite growth was assessed by imaging and image analysis. […]
After obtaining images, the MetaExpress Neurite Outgrowth analysis module (Molecular Devices) was used to identify cells, cell bodies, and quantify neurites. […] The Outgrowth Fold Change was determined by setting the untreated control cells to a value of 1 with all other treatments shown relative to untreated control.
Undifferentiated SH-SY5Y cells were seeded and treated as described in Example 1. Neurite growth was assessed by imaging and image analysis. […]

Substance	neurogenesis / differentiation of SH-SY5Y (FIG. 4)	neurogenesis (neurite outgrowth) of SH-SY5Y (FIG. 3B)
rHSA: low-affinity iron binding form of human serum albumin, obtained from Albumedix [reference compound]	neither bovine serum albumin (BSA) nor a low-affinity iron binding form of human serum albumin affected neurogenesis	–
pdHSA: Plasma-derived human serum albumin purified from pooled human plasma [reference compound]	–	did not affect neurogenesis
